Results reported in US20150118229A1, “JAK1 SELECTIVE INHIBITOR AND USES THEREOF” (ABBVIE INC., priority 2013, published 2015).

How the values were obtained:
[1] = Human PK, multiple ascending dose Study M13-845 Substudy 1; format: in vivo; details: 12 mg BID, Day 14, harmonic mean (pseudo % CV); Western subjects
Pharmacokinetics in rat = format: in vivo; details: oral 10 mg/kg/day, Day 29, mean (SD)
[2] = 18 mg BID, Day 14, harmonic mean (pseudo % CV)

Which t1/2 [1] does the source give for `CC[C@@H]1CN(C(=O)NCC(F)(F)F)C[C@@H]1c1cnc2cnc3[nH]ccc3n12` [Compound 1, (3S,4R)-3-ethyl-4-(3H-imidazo[1,2-a]pyrrolo[2,3-e]pyrazin-8-yl)-N-(2,2,2-trifluoroethyl)pyrrolidine-1-carboxamide] here?
The t1/2 was 7.6 (63) hr.

What about the Cmax (Pharmacokinetics in rat; rat F) of the same compound?
The Cmax was 0.652 (0.269) μg/mL.

And the Cmax (Pharmacokinetics in rat; rat M)?
Its Cmax is 0.329 (0.172) μg/mL.

And the t1/2 ([2]; Chinese)?
The t1/2 was 6.88 (54) hr.

What about the t1/2 ([2]; Japanese) of the same compound?
The t1/2 was 9.51 (70) hr.

Like-named read-outs stand apart in the source and are kept apart here.
